Source: ChEMBL document CHEMBL4765382, “Novel anilide and benzylamide derivatives of arylpiperazinylalkanoic acids as 5-HT/5-HT receptor antagonists and phosphodiesterase 4/7 inhibitors with procognitive and antidepressant activity” (Eur J Med Chem, 2020)
Calls of active or inactive are those of the source. The calls are words filed in the database; no cut-off is given here.

By UniProt entry, the sequences of proteins in these tests, tags left out.
UniProt P34969, whole entry: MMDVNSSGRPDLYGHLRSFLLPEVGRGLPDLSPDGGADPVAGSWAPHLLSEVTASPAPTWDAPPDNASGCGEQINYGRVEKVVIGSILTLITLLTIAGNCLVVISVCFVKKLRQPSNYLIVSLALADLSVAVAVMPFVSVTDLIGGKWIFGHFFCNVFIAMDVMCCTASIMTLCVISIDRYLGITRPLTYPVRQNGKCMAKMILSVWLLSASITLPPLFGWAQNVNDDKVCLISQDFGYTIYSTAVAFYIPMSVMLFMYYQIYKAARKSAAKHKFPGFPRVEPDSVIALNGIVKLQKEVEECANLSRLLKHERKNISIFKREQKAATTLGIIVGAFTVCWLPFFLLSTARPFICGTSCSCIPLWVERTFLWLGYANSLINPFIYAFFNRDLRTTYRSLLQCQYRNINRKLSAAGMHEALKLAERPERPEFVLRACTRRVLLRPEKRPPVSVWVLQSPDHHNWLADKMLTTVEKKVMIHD

Key:
[1] = target: T1, 5-hydroxytryptamine receptor 7 (Homo sapiens, UniProt P34969); test: Agonist activity at recombinant human 5HT7 receptor expressed in CHO-K1 cells co-transfected with beta-lactamase reporter gene assessed as cAMP accumulation measured after 1 hr by LANCE TR-FRET assay; format: functional, cell-based
[2] = target: T1, 5-hydroxytryptamine receptor 7; test: Antagonist activity at recombinant human 5HT7 receptor expressed in CHO-K1 cells co-transfected with beta-lactamase reporter gene assessed as inhibition of serotonin-induced cAMP accumulation measured after 1 hr by LANCE TR-FRET assay; format: functional, cell-based; conditions: filed as antagonist
[3] = target: T1, 5-hydroxytryptamine receptor 7; test: Displacement of [3H]-5-CT from human 5HT7 receptor expressed in HEK293 cells measured after 1 hr by microbeta counting method; format: cell-based

SMILES | Activity [1] | Kb [2] [nM] | Ki [3] [nM]
COc1ccccc1N1CCN(CCCC(=O)Nc2ccc(C(C)(C)C)cc2)CC1 | inactive |  | 
COc1ccccc1N1CCN(CCCCCC(=O)Nc2ccc(C(C)(C)C)cc2)CC1 | inactive | 870 | 
COc1ccccc1N1CCN(CCCC(=O)NCc2ccccc2O)CC1 | inactive | 120 | 
COc1ccccc1N1CCN(CCCCC(=O)Nc2ccc(C(C)C)cc2)CC1.Cl | inactive | 460 | 451
COc1ccccc1N1CCN(CCCCC(=O)Nc2cccc(C(C)C)c2)CC1.Cl | inactive | 100 | 
COc1ccccc1N1CCN(CCCCCC(=O)Nc2cc(C(C)(C)C)ccc2O)CC1 | inactive | 480 | 
COc1ccccc1N1CCN(CCCC(=O)Nc2cc(C(C)(C)C)ccc2O)CC1 | inactive | 2300 | 
COc1ccccc1N1CCN(CCCCC(=O)Nc2cccc(C(=O)OC(C)(C)C)c2)CC1 | inactive | 9900 | 
COc1ccccc1N1CCN(CCCCC(=O)NCc2ccccc2O)CC1 | inactive | 240 | 
